In patent publication US20050064382A1, “Method of prevention of lysosomal leakage in eukaryotic cells by using 6-methyluracil based water-soluble compounds and method of producing thereof” (priority 2002, published 2005):

How the values were obtained:
Water solubility = type: physicochemical
[1] = system: skeletal (rear leg) muscle homogenates; test: Proteolytic index of muscle homogenates (autoproteolysis, Ninhidrin); type: biochemical, rat; conditions: incubation 4 hours at 37° C.
Protocol: In-vitro tests were performed on the skeletal (rear leg) muscles of 17 white laboratory rats. Preliminary research efforts determined 1) the preparation method for muscle homogenates, 2) estimation of level of the proteolytic activity by measuring for the concentration of free amino acids, a result of protein cleavage, and 3) the optimal time of authoproteolysis.
The preparation of muscle homogenates. Efforts were made to disassemble the muscle tissue gently, without disruption of the lysosomes, though with sufficient strength to ensure a homogeneous suspension of muscle cells in physiological solution (PBS). Potter's homogenator was used with a glass barrel and a Teflon pestle. Determination of the optimal treatment was based on experimental data and the activity of the proteases during the incubation of the homogenates at 37° C. If lysosomes were damaged during preparation of the homogenates, then there was no increase in concentration of free amino acids during incubation. Undamaged lysosomes in the homogenate would continue their proteolytic activity during incubation. For the best preparation of the homogenate, the muscles were separated from the connecting tissue, weighed and cut up with scissors in a Petri dish for 10 minutes. The tissue was transferred into the barrel of the homogenator and cold, standard PBS was added ten parts to one part of tissue (weight to volume). The tissues were turned into homogenate with 6 strokes of the pestle. Glucural was dissolved in water (2.5 mg/ml) and added to the PBS before the treatment. All manipulations were done at 0° C.
The estimation of proteolytic activity. After incubation of the muscle samples for 4 hours, they were iced and then centrifuged for 10 minutes at low speed.
After the incubation of samples, the protein concentration was estimated by the standard Bio-Rad method. To estimate proteolytic activity based on the concentration of free amino acids found in the sample, three methods were tried: 1) absorbance at 280 nm, 2) concentration of amino acid tyrosine by estimation with Folin reagent, and 3) concentration of end amino groups with Ninhidrin reagent. Only method 3 provided accurate results, so the proteolytic index was measured based on the Ninhidrin reagent. After the estimation of protein concentrations, we used aliquots 0.05 or 0.1 ml, added water to have the volume equal to 0.8 ml and added 0.8 ml of 0.1% Ninhidrin water solution. Samples were boiled in a water bath for 10 minutes, chilled and the absorbance at 560 nm was measured. […] Concentrations of free amino acids and protein in mg/ml could therefore be determined for both cases. The ratio of free amino acids per proteins in the sample was calculated as the proteolytic index. […]

Substance: complex of 2,4-dihydroxy-6-methylpyrimidine with N-methyl-D-glucamine [Glucural]
- water-solubility (Water solubility): more than 30 mg/ml
- water-solubility relative to thalidomide (Water solubility): more than ten times higher
- Proteolytic Index ([1]; Glucural 20 mkg/ml): 2.142 ± 0.274 mg of aminoacids per mg of protein
- Proteolytic Index ([1]; Glucural 30 mkg/ml): 2.268 ± 0.195 mg of aminoacids per mg of protein
- Proteolytic Index ([1]; Glucural 50 mkg/ml): 1.380 ± 0.170 mg of aminoacids per mg of protein
- Proteolytic Index ([1]; Glucural 100 mkg/ml): 1.071 ± 0.116 mg of aminoacids per mg of protein
